How the values were obtained:
GBA3 = GBA3 (Homo sapiens, UniProt Q9H227); test: ABP labeling (ABPP) of GBA3 in lysates of GBA2/GBA3 overexpressing HEK293T cells; format: binding; conditions: pH 6.0, tested form: bicarbonate
Method: (§1) As a negative control, lysates of HEK293T cells with knocked‐out (KO) expression of GBA1 and GBA2 were incubated with a high concentration of each ABP. The observed selectivity patterns of most compounds were in line with the results of the fluorogenic substrate assay except for 50, which labeled GBA1 less potently than expected. […] However, 41 labels GBA3 only at high concentrations and is selective for GBA1 and GBA2 at lower concentrations. In contrast, the dideoxy derivatives all discriminate between the target enzymes, labeling mainly one out of three (53: GBA1, 50: GBA3, and 5: GBA2 and, to a lesser extent, GBA3), alongside significant off‐target labeling at higher concentrations. For instance, besides labeling GBA2 and GBA3 (104.6 kDa and 53.6 kDa respectively), ABP 5 labels three major off‐target proteins (~45 kDa, ~55 kDa, and ~65 kDa), and these bands appear also in the experiments with the other deoxygenated ABPs (Figure 3B). Possibly, the deoxygenated ABPs are more hydrophobic compared to ABPs 1 and 3, causing them to more readily associate with hydrophobic protein patches and subsequently engage in reactions.
The optimal conditions for selective GBA3 labeling with 50 were investigated next. […]

Sequences of proteins named here, by UniProt entry; tags and fusion partners are left off. Residues count along the entry.
UniProt Q9H227, whole entry: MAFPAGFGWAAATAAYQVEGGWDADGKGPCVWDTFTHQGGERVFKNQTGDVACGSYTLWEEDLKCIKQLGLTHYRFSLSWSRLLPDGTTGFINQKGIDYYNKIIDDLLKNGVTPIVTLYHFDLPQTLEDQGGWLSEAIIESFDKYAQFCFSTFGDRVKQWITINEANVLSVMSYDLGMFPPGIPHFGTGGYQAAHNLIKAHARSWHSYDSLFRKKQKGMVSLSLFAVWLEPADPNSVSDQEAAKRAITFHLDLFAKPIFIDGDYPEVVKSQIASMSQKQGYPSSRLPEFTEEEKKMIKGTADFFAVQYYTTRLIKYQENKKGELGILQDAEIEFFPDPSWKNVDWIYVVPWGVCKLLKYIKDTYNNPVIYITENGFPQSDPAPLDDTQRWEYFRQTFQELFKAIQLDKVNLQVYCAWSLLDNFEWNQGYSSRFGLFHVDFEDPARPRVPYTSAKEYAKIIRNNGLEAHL
UniProt P04062, 40-536 limits assumed: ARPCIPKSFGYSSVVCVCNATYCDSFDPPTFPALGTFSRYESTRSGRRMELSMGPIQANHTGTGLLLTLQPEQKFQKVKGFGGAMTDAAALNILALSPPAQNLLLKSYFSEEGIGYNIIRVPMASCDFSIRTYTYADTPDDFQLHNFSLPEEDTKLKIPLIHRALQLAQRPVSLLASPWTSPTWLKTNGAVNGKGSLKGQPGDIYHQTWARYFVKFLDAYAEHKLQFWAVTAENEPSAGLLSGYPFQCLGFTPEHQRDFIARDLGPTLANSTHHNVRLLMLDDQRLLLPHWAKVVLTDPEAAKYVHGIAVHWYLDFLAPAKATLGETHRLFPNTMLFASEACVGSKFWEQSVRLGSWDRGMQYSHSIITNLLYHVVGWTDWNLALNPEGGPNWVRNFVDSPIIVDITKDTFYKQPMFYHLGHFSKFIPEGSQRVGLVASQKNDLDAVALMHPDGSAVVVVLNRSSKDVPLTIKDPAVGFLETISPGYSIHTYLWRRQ
UniProt P04062, 40-536 R534H limits assumed: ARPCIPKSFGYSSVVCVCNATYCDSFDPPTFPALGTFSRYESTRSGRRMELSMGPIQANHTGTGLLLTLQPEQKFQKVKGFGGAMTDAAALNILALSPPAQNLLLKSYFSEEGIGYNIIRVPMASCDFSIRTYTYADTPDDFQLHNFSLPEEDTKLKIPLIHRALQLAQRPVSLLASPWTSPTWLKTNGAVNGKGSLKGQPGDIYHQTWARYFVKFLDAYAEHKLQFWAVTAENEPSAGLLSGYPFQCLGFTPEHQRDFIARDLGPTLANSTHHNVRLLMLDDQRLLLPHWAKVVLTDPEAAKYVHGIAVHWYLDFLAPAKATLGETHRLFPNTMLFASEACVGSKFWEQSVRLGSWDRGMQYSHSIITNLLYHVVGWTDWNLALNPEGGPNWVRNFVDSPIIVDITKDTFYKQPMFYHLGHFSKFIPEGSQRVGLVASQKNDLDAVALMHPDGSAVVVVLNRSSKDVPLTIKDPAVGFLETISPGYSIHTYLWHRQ

[1] = test system: endogenous GBA1 and overexpressed human GBA2 and GBA3; test: ABP labeling (ABPP) in lysates of GBA2/GBA3 overexpressing HEK293T cells, selectivity pattern; format: binding; conditions: pH 6.0, 30 min, tested form: bicarbonate
Method: as §1
(§2) described previously.6,16
(§3) protease inhibitor cocktail (EDTA-free, Roche)).
(§4) The enzymes were incubated with 12.5
(§5) The substrate mixtures diluted in […]

GBA1 = GBA1 (Homo sapiens, UniProt P04062); test: competitive ABPP (cABPP) with 2 in HEK293T cell lysates, GBA1; conditions: tested form: bicarbonate
Text: Some selected compounds were next assessed by competitive ABPP (cABPP) with Bodipy‐tagged compound 2, that allows read‐out and quantification independent of Cy5 excitation and emission ranges. The cABPP experiments confirmed the apparent selectivity of 5 for GBA2/3 over GBA1, while compound 53 was confirmed to target GBA1 selectively over GBA2 and GBA3 (Supporting information, Figure S1). Special attention was given to compound 50 to investigate the discrepancy in results on GBA1 from the fluorogenic substrate assays and ABPP assays. Competitive ABPP with 2 confirmed that GBA1 was not inhibited after incubation of cell lysates of GBA2/GBA3 overexpressing HEK293T cells with 50 for 30 min, nor for 3 h (Figure 4A and B). It was hypothesized that GBA1 was not inhibited due to the competition with unnaturally high levels of GBA2 and GBA3, however after incubation of 50 with wild‐type HEK293T cell lysates, GBA1 activity remained unchanged independent of compound concentration (Figure 4C).
Figure 4 ABP labeling with 50 followed by cABPP with 2 (300 nM) in lysates of HEK293T GBA2/GBA3 overexpressing cells (incubation time (A) 30 min; (B) 3 h); (C) HEK293T WT cells (incubation time 30 min). (D) ABP labeling with 50 in rhGBA1 at pH 6.0 supplemented with 0.1 % (w/v) BSA. (E) cABPP. The sample for lane 2 was pre‐incubated with 2 (300 nM) followed by 50 (10 μM). […]

recombinant human GBA1 = recombinant human GBA1 (Homo sapiens, UniProt P04062, R534H); test: ABP labeling (ABPP) on recombinant human GBA1; conditions: tested form: bicarbonate
Method: Next, ABPP with 50 was performed on recombinant human GBA1. In contrast to the cell lysate ABPP, 50 labeled GBA1 in these conditions at various pH values (Supporting Information, Figure S2). It was hypothesized that binding of 50 to rhGBA1 is non‐specific, and to investigate this possibility, an ABP labeling on rhGBA1 supplemented with an excess of bovine serum albumin (BSA, 0.1 % w/v) was carried out. Despite the intensive labeling of BSA, effective labeling of rhGBA1 by 50 was retained (Figure 4D). […] Intriguingly, ABP 48 (the structurally closed analogue of 50) labeled GBA1 in HEK293T cell lysates, in line with the results of the fluorogenic substrate assay (Supporting Information, Figure S2).
as §2, §3, §4, §5

GBA1, GBA2 and GBA3 = conditions: GBA2/GBA3 overexpressing HEK293T cell lysates; tested form: bicarbonate

SMILES	labeling of GBA3 (GBA3)	target glucosidases labeled by the ABP [1]	GBA1 inhibition in cABPP with 2 (300 nM) (GBA1; lysates of GBA2/GBA3 overexpressing HEK293T cells, incubation 30 min or 3 h)	GBA1 activity in cABPP with 2 (300 nM) (GBA1; wild-type HEK293T cell lysates, incubation 30 min)	labeling of rhGBA1 in presence of BSA (recombinant human GBA1; rhGBA1, pH 6.0, supplemented with BSA 0.1 % w/v)	labeling of rhGBA1 (recombinant human GBA1; rhGBA1, various pH values)	selectivity in cABPP with 2 (300 nM) (GBA1, GBA2 and GBA3)
CN1/C(=C/C=C/C=C/C2=[N+](CCCCCC(=O)NCCCCCCCCN3[C@@H]4[C@H](CO)[C@@H](O)C[C@@H](O)[C@@H]43)c3ccccc3C2(C)C)C(C)(C)c2ccccc21 (stereo partly shown)	labels GBA3 only at high concentrations	label all three target glucosidases					
CN1/C(=C/C=C/C=C/C2=[N+](CCCCCC(=O)NCCCCCCCCN3[C@@H]4[C@H](CO)[C@H](O)C[C@@H](O)[C@@H]43)c3ccccc3C2(C)C)C(C)(C)c2ccccc21 (stereo partly shown)		label all three target glucosidases					
C[C@H]1[C@@H]2[C@H]([C@H](O)C[C@H]1O)N2CCCCCCCCNC(=O)CCCCC[N+]1=C(/C=C/C=C/C=C2/N(C)c3ccccc3C2(C)C)C(C)(C)c2ccccc21 (stereo partly shown)		GBA3	not inhibited	remained unchanged	effective labeling of rhGBA1 by 50 was retained	labeled GBA1	
C[C@H]1[C@@H]2[C@H]([C@H](O)C[C@@H]1O)N2CCCCCCCCNC(=O)CCCCC[N+]1=C(/C=C/C=C/C=C2/N(C)c3ccccc3C2(C)C)C(C)(C)c2ccccc21 (stereo partly shown)		GBA1					target GBA1 selectively over GBA2 and GBA3
